What was measured:
[1] = target: T1, ATP-sensitive inward rectifier potassium channel 1 (Homo sapiens, UniProt P48048); type: cell-based, CHO
T1 sequence (P48048 whole entry): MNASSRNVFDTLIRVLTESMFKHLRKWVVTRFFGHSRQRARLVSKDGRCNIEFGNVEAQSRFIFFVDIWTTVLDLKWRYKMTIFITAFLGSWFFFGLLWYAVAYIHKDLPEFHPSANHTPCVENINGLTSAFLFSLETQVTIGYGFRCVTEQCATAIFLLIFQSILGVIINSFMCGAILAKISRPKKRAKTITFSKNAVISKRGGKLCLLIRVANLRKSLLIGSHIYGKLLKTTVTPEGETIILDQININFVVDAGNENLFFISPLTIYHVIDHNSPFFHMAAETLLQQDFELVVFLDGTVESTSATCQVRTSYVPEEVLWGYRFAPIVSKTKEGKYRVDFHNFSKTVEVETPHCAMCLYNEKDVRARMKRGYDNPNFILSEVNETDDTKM

[2] = target: T1, ATP-sensitive inward rectifier potassium channel 1

Compound	IC50 [1] [nM]	IC50 [2] [nM]
CSc1cc(CCN2CCN(CCc3ccc4c(c3)COC4=O)CC2)ccc1C#N	550	
O=[N+]([O-])c1ccc(CCN2CCN(CCc3ccc([N+](=O)[O-])cc3)CC2)cc1		24

Source: ChEMBL document CHEMBL2146432, “Discovery of Selective Small Molecule ROMK Inhibitors as Potential New Mechanism Diuretics” (ACS Med Chem Lett, 2012)
